Experimental data as given in patent publication US5792796A, “Methods for treating anxiety and panic” (Warner-Lambert Company, priority 1995, dated 1998).

Assays:
GABAA receptors = conditions: cited from earlier work
rats = assay: Rat conflict test
Procedure: (§1) Male Hooded Lister rats (200-250 g) were obtained from Interfauna (Huntingdon, UK) and male TO mice (20-25 g) were obtained from Bantin and Kingman (Hull, UK). Both rodent species were housed in groups of six. Ten Common Marmosets (Callithrix Jacchus) weighing between 280 and 360 g, bred at Manchester University Medical School (Manchester, UK) were housed in pairs. All animals were housed under a 12-hour light/dark cycle (lights on at 07.00 hour) and with food and water ad libitum.
Rats were trained to press levers for food reward in operant chambers. The schedule consisted of alternations of four 4-minute unpunished periods on variable interval of 30 seconds signalled by chamber lights on and three 3-minute punished periods on fixed ratio 5 (by footshock concomitant to food delivery) signalled by chamber lights off. The degree of footshock was adjusted for each rat to obtain approximately 80% to 90% suppression of responding in comparison with unpunished responding. Rats received saline vehicle on training days.
The results are expressed as mean percent increase or decrease of lever pressing (vertical bars represent ±SEM) of at least 5 animals per group on test day compared with mean performances obtained the 2 previous days following vehicle administration.
*p <0.05, **p <0.01 (paired Student t-test).

GABAB receptors = conditions: cited from earlier work
male TO mice = conditions: 40 minutes before test
Procedure: as §1
The small compartment was painted black and the large compartment white.

[1] = tested on: Common Marmosets (Callithrix Jacchus); conditions: 10-300 mg/kg SC, 40 minutes before test
Procedure: as §1

male Hooded Lister rats = tested on: male Hooded Lister rats
Procedure: as §1

[2] = 3-100 mg/kg SC, 40 minutes before test

SMILES: NCC1(CC(=O)O)CCCCC1 [gabapentin, 1-(aminomethyl)cyclohexaneacetic acid]
- interaction with GABAA receptors (GABAA receptors): does not interact
- increase in lever pressing in the punished period (rats; 3 mg/kg (minimum effective dose), 40 minutes before test): 65%
- maximal effect, increase in lever pressing in the punished period (rats; 30 mg/kg, 40 minutes before test): 179%
- minimal effective dose (rats; Rattus norvegicus, 40 min, read-out: minimum effective dose (MED) for increased lever pressing in the punished period): 3 mg/kg
- interaction with GABAB receptors (GABAB receptors): does not interact
- time spent by mice in the illuminated side of the box (male TO mice; 10 mg/kg IP): increased
- time spent by mice in the illuminated side of the box (male TO mice; 30 mg/kg IP): increased
- time spent by mice in the illuminated side of the box (male TO mice; 100 mg/kg IP (highest dose)): the effect disappeared
- anticonvulsant and anxiolytic activity in the presence of D-serine: can be reversed by D-serine
- number of postures emitted by marmosets in response to a human threat [1]: decreased
- total entries (male Hooded Lister rats; 30 mg/kg SC): increase
- percent entries (%EEOA) made onto the end half sections of the open arms (male Hooded Lister rats; [2]): increased
- percent time spent (%TEOA) on the end half sections of the open arms (male Hooded Lister rats; [2]): increased

Like-named read-outs stand apart in the source and are kept apart here.
